Amino acid sequences for entries named in this document (tags omitted). A change or cut given only in a name is not applied to a line headed by its entry.
UniProt O43924: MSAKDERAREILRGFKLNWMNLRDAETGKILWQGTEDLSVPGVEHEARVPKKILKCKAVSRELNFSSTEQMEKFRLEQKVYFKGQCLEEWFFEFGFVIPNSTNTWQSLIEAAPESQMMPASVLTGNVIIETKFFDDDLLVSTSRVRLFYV

In ChEMBL document CHEMBL4028858, “Structural Biology-Inspired Discovery of Novel KRAS-PDEδ Inhibitors” (J Med Chem, 2017):

Target: Retinal rod rhodopsin-sensitive cGMP 3',5'-cyclic phosphodiesterase subunit delta (Homo sapiens, UniProt O43924)

## c1ccc(Cn2c(-c3ccc(OC[C@H](C4CCNCC4)n4c(-c5ccccc5)nc5ccccc54)cc3)nc3ccccc32)cc1
  Kd: 0.024 µM
